The text below walks through data of BindingDB's records for 2536439.

By UniProt entry, the sequences of proteins in these tests, tags left out. Where a name states a change or a piece, a line headed by the entry shows the natural chain unless it says otherwise.
UniProt P33535, whole entry, looked up: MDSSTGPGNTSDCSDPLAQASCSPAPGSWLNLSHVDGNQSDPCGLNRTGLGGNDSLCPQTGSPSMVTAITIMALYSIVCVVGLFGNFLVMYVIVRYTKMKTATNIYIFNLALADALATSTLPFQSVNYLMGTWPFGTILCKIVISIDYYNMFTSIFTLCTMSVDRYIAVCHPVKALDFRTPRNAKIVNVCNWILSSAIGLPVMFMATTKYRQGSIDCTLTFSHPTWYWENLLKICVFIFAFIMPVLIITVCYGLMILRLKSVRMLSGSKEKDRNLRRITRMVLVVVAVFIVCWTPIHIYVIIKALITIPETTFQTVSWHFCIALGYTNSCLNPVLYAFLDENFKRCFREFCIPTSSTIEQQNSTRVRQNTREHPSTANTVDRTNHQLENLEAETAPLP
UniProt P33533, whole entry, looked up: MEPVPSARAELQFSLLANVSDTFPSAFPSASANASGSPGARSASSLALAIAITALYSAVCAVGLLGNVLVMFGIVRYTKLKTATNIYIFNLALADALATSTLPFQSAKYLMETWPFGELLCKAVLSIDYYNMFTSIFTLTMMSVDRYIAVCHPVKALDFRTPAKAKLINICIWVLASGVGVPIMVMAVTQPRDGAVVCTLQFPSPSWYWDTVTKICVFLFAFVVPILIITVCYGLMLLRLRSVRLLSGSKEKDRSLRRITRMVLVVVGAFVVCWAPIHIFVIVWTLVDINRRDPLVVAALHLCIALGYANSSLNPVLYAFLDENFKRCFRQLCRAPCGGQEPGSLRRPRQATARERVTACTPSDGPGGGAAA
UniProt P34975: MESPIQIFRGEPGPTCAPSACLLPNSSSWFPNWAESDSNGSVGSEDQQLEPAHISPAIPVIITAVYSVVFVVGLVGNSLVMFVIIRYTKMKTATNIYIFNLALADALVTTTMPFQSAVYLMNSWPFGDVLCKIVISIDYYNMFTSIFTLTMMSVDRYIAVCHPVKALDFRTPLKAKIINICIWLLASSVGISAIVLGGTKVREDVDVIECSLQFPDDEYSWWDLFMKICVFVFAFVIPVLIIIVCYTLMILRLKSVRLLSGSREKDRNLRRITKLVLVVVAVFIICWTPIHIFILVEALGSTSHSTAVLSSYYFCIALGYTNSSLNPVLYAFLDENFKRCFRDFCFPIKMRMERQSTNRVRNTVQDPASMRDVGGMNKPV
UniProt Q9R0C9, whole entry, looked up: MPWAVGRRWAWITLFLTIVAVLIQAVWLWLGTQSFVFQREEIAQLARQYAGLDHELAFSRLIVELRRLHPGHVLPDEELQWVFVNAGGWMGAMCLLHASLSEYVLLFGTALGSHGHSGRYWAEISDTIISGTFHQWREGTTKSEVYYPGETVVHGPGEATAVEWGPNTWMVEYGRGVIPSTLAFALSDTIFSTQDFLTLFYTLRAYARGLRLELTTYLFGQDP

The IC50 is the concentration that gives 50% inhibition.

The test addresses Delta-type opioid receptor/Kappa-type opioid receptor/Mu-type opioid receptor/Sigma non-opioid intracellular receptor 1 (Rattus norvegicus, UniProt P33535+P33533+P34975+Q9R0C9).

The compound `CN(C(=O)Cc1ccc(Cl)c(Cl)c1)[C@@H]1CCCC[C@H]1N1CCCC1` gave an IC50 of 12 µM.
